Source: PubChem BioAssay AID720551 (National Center for Advancing Translational Sciences (NCATS), 2013)
The entries are a selection whose mix differs from that of the whole data set. Calls of active or inactive are those of the source.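 Rule for the calls: active = maximum activity change below -70%; inconclusive = maximum activity change between -70% and -50%; inactive = maximum activity change above -50%.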

Chains of the proteins cited; added tags and fusions are not shown. Lines headed by an entry give the natural chain unless they say otherwise; changes in a name come on top.
UniProt Q12809: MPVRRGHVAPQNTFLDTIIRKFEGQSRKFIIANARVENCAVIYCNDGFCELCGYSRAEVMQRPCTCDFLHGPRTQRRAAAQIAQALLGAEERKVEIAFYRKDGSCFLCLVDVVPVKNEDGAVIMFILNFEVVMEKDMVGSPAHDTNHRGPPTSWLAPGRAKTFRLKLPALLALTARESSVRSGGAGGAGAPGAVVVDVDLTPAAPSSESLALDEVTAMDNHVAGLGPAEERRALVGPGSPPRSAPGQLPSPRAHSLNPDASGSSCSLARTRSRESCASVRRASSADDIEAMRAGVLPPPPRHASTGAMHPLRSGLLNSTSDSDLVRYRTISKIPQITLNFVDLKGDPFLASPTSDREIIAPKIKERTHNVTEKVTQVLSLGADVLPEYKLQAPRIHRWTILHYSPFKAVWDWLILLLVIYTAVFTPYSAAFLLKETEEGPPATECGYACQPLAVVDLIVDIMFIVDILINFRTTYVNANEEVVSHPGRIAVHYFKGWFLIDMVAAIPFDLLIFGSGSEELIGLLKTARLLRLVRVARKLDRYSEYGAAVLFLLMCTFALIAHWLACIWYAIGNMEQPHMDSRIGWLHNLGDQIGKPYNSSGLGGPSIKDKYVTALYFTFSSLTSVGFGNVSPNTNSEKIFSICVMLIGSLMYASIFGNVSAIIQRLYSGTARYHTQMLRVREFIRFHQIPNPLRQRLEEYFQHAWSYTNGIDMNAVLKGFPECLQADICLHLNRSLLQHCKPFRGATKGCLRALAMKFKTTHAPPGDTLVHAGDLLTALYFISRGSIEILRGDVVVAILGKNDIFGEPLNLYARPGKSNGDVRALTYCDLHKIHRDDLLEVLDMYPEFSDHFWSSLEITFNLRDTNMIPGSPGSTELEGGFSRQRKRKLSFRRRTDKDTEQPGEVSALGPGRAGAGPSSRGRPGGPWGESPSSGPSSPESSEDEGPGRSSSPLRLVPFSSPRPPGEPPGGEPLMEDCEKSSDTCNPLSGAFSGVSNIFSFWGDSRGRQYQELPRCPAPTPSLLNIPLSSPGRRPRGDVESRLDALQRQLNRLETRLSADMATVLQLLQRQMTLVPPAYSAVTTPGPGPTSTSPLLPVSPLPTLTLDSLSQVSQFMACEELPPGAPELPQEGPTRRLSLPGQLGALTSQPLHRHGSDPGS

The compounds below were run against Voltage-gated inwardly rectifying potassium channel KCNH2 (Homo sapiens) (UniProt Q12809) (assay: qHTS for Inhibitors of KCHN2 3.1: Wildtype qHTS). Settings: U2OS, BacMam KCNH2, thallium flux FluxOr; at 1.84 µM, hits give low values.
Outline: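 U2OS cells transduced with wild-type KCNH2 virus are loaded with FluxOr dye for 45 min, and thallium flux is measured in kinetic reads before and after stimulation buffer. Rate constants are normalized to DMSO controls.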
% is set by controls: 0 for no effect and ±100 for the full control effect.

Structure (SMILES)	activity change
Clc1ccc(Cl)c(NC2=NCC(CBr)S2)c1 (configuration not stated)	inactive: 1.1%
CN1CCCC(OC(=O)C(c2ccccc2)c2ccccc2)C1 (configuration not stated)	inactive: 29.9%
CC(C)CC(=O)NC(Sc1ccc(Cl)cc1)C(Cl)(Cl)Cl (configuration not stated)	inactive: 9.41%
Nc1cc(N)c2nonc2c1[N+](=O)[O-]	inactive: 1.32%
Oc1ccccc1CNc1ccccn1	inactive: 1.98%
O=C(NC(Sc1ccncn1)C(Cl)(Cl)Cl)c1ccccc1 (configuration not stated)	inactive: 20.8%
O=C(O)c1ccccc1[As](=O)(O)O	inactive: -9.11%
CC(=O)Nc1ccc([As](=O)(O)O)cc1	inactive: -6.04%
CCCC1OP(N)(=O)OCC1CC (configuration not stated)	inactive: -2.64%
CN(C)P(=O)(N(C)C)n1c(Nc2ccccc2)nnc1-c1ccccc1	active: -143%
O=P(Nc1nc2ccc(Cl)cc2s1)(c1ccccc1)c1ccccc1	inactive: -1.57%
CCOP(=O)(Nc1ccccc1)OCC	inactive: 6.04%
Cc1cc(SC(NC(=O)c2ccc(F)cc2)C(Cl)(Cl)Cl)ncn1 (configuration not stated)	inactive: 2.82%
Cc1ccc(NP(=O)(Oc2ccccc2F)Oc2ccccc2F)nc1	inactive: -6.97%
CN(C(=O)Cc1ccc(Cl)c(Cl)c1)[C@H]1CCCC[C@@H]1N1CCCC1	inactive: 60%
CCN(N=Nc1nonc1N)c1nonc1N	inactive: 1.63%
Nc1cccc2ccc([As](=O)(O)O)cc12	inactive: 10.9%
O=P1(N(CCCl)CCCl)OCCCS1 (configuration not stated)	inactive: -0.18%
O=C(Nc1cc([As](=O)(O)O)ccc1O)c1ccccc1	inactive: -5.24%

Structure (SMILES)	activity change
CC(C)(C)C(=O)NC(Sc1ccncn1)C(Cl)(Cl)Cl (configuration not stated)	inactive: -5.89%
O=[N+]([O-])c1cccc(NC2=NCC(CBr)S2)c1 (configuration not stated)	inactive: 0.752%
COC(=O)C1(C)COP(=O)(Nc2ccccc2)OC1 (configuration not stated)	inactive: 16.6%
O=C(O)CNc1ccc([As](=O)(O)O)cc1	inactive: 1.22%
COc1ccc(C2=NCC(CBr)S2)cc1 (configuration not stated)	inactive: 9.26%
O=[N+]([O-])c1cccc2n[nH]nc12	inactive: 15.6%
CC(=O)N1C2C3N(C(C)=O)C1C1N(C(C)=O)C(C(N1C(C)=O)N3C(C)=O)N2C(C)=O	inactive: 4.17%
Cc1ccc(NP(=O)(Oc2ccccc2)Oc2ccccc2)nc1	inactive: -1.91%
CCc1nc2c(n1)c1c(non1O)c1c2no[n+]1[O-]	inactive: -2.15%
O=[N+]([O-])c1cc([N+](=O)[O-])c(CCNc2ccccc2)c([N+](=O)[O-])c1	inactive: -8.37%
Nc1ccc([As](=O)(O)c2ccc(N)cc2)cc1	inactive: -3.19%
C[N+]1=C2C=CC=CC=C2SC12C([N+](=O)[O-])=CC([N+](=O)[O-])=C[C-]2[N+](=O)[O-] (configuration not stated)	inactive: -22.7%
CCN(/C(=N/P(=O)(N1CCOCC1)N1CCOCC1)N1CCOCC1)c1ccc(OC)cc1	inactive: -7.15%
CC(C)=N/N=C(\N)N[N+](=O)[O-]	inactive: -5.77%
CC(C)c1nc(Nc2ccccc2)n(P(=O)(N(C)C)N(C)C)n1	inactive: -4.86%
CN(C)C(=O)OCCc1n(C)cc[n+]1C	inactive: -6.48%
c1cc(-c2nn[nH]n2)ccc1-c1nn[nH]n1	inactive: -4.56%
CC1CCN(C(=O)Oc2c(Cl)cc(Cl)c3cccnc23)CC1	inactive: 0.894%
